# How the values were obtained:
# [1] = system: EGFR-Ras-ERK signaling pathway in MCF10A cells; test: ERK activation by EGF chemical stimulation (ERKTR reporter), control groups of the blocker tests; format: cell-based; settings: cetuximab 100 μg/mL, EGF 2 ng/mL, 96-well plate
# [2] = system: EGFR-Ras-ERK signaling pathway in MCF10A cells; test: ERK activation by AC EF stimulation (ERKTR reporter) in blocker tests; format: cell-based; settings: cetuximab 100 μg/mL, ERKTR ratio
substance,measurement,setting,value
cetuximab,effect on ERK activation by EGF stimulation,[1],blocked ERK activation
same,effect on ERK activation under AC EF stimulation,[2],"the AC EF could still activate ERK, although with an overall reduced contrast in the fluorescent signals"

# Reference: patent US11634702B2, “Cell signaling pathway activation by local AC electric field” (ARIZONA BOARD OF REGENTS ON BEHALF OF ARIZONA STATE …, priority 2018, dated 2023)
